Results reported in PubChem BioAssay AID1008 (NMMLSC, 2008).
The list shows a part of the results, in another mix than the full data. Activity calls are given as the source filed them. Rule as the data show it: active = inhibition above about 40%.

The chains behind the UniProt entries cited, without tags or fusion partners.
UniProt Q16548, whole entry: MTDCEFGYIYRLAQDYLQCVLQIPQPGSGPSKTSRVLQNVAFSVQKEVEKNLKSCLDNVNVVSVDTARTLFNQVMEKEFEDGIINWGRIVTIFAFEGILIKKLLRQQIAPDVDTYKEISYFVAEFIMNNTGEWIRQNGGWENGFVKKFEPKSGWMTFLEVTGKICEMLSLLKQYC

target: Bcl-2-related protein A1 (Homo sapiens) (UniProt Q16548); assay: inhibitors of Bim binding to Bfl-1, primary screen, biochemical, multiplexed, bead-based flow cytometry (AID 1008); details: Bim-Bfl-1 binding inhibition, at 10 µM, hits give high values;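 also: 0% = wells without compound plus tracer and 100% = blocker peptide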

Row | SMILES | inhibition
1 | Cc1ccc(NP(C)(=O)Oc2ccccc2)c(C)c1 (centres undefined) | inactive: -10%
2 | COc1ccccc1OP(C)(=O)Nc1ccc(C)cc1 (centres undefined) | inactive: 10%
3 | CCOC(=O)c1ccc(NP(C)(=O)Oc2ccccc2)cc1 (centres undefined) | inactive: 0%
4 | Cc1cc(C)cc(OP(C)(N)=O)c1 (centres undefined) | inactive: -2%
5 | COc1ccc(OP(C)(=O)Nc2cccc(F)c2)cc1 (centres undefined) | inactive: 0%
6 | COc1ccccc1OP(C)(=O)Nc1cc(Cl)ccc1C (centres undefined) | inactive: -7%
7 | O=[N+]([O-])c1ccc2c(c1)C=Nc1ccccc1O2 | inactive: -2%
8 | Cc1cccc(C)c1OP(C)(N)=O (centres undefined) | inactive: -3%
9 | CC(C)(C)c1ccc(OP(C)(=O)Nc2ccc(SC(F)(F)F)cc2)cc1 (centres undefined) | inactive: -1%
10 | CCN(CC)CCCOC(=O)C(O)(c1ccccc1)c1ccccc1 | inactive: -3%
11 | CCOC(=O)c1ccc(NP(C)(=O)Oc2ccc(OC)cc2)cc1 (centres undefined) | inactive: -11%
12 | CCOP(C)(=S)SCC(=O)NC(C)C(=O)O (centres undefined) | inactive: 1%
13 | CP(=O)(Nc1ccccn1)Oc1ccc(Cl)cc1 (centres undefined) | inactive: -3%
14 | CP(=O)(Oc1ccccc1)OC(c1ccccc1)C(F)(F)F (centres undefined) | inactive: -3%
15 | Cc1cccc(C)c1OP(C)(=O)Nc1ccc(SC(F)(F)F)cc1 (centres undefined) | inactive: 15%
16 | Cc1cc(C)cc(OP(C)(=O)Nc2ccc(SC(F)(F)F)cc2)c1 (centres undefined) | inactive: 2%
17 | CP(=O)(NC(=O)Nc1ccccc1)Oc1ccccc1 (centres undefined) | inactive: -5%
18 | CP(=S)(Nn1cnnc1)Oc1ccccc1 (centres undefined) | inactive: 0%
19 | CP(=O)(Nc1ccccc1Br)Oc1ccccc1 (centres undefined) | inactive: 0%
20 | COc1ccccc1OP(C)(=O)Nc1ccccc1 (centres undefined) | inactive: -5%
21 | COc1ccccc1OP(C)(=O)Nc1c(C)cccc1C (centres undefined) | inactive: -2%
22 | CN1CCCCC1COC(=O)C1(O)c2ccccc2CCc2ccccc21 (centres undefined) | inactive: -3%
23 | CP(=O)(Nc1ccc(SC(F)(F)F)cc1)Oc1ccccc1 (centres undefined) | inactive: -2%

Row | SMILES | inhibition
24 | CCCOc1ccc(NP(C)(=O)Oc2ccc(Cl)cc2)cc1 (centres undefined) | inactive: 0%
25 | Cc1nc2ccc3ccccc3c2s1.O=[N+]([O-])c1cc([N+](=O)[O-])c(O)c([N+](=O)[O-])c1 | inactive: -8%
26 | O=[N+]([O-])c1cc([N+](=O)[O-])c(-n2nnc3ccccc32)c([N+](=O)[O-])c1 | inactive: 35%
27 | Cc1ccc(C)c(NP(C)(=O)Oc2ccccc2)c1 (centres undefined) | inactive: -5%
28 | CP(=O)(Nc1cccc(Br)c1)Oc1ccccc1 (centres undefined) | inactive: -4%
29 | Cc1cc(C)cc(OP(C)(=O)Nc2ccccn2)c1 (centres undefined) | inactive: -13%
30 | CCOC(=O)c1ccc(NP(C)(=O)Oc2cc(C)cc(C)c2)cc1 (centres undefined) | inactive: 0%
31 | Cc1cc(C)cc(OP(C)(=O)Nc2ccc(C)cc2C)c1 (centres undefined) | inactive: -8%
32 | CC1=NCCc2c1[nH]c1ccccc21.O=[N+]([O-])c1cc([N+](=O)[O-])c(O)c([N+](=O)[O-])c1 | inactive: 2%
33 | CCN(CC)CCCOC(=O)C(O)(c1ccccc1)C1CCCCC1 (centres undefined) | inactive: -2%
34 | CP(=O)(Nc1ccccc1)Oc1ccc(F)cc1 (centres undefined) | inactive: -3%
35 | CCOC(=O)c1ccc(NP(C)(=O)Oc2ccc(F)cc2)cc1 (centres undefined) | inactive: 0%
36 | COc1ccc(OP(C)(=O)Nc2ccc(SC(F)(F)F)cc2)cc1 (centres undefined) | inactive: -3%
37 | O=C(OCCN1CCN(CCOCc2ccccc2)CC1)C(O)(c1ccccc1)c1ccccc1 | inactive: 3%
38 | CP(=O)(Nc1ccccc1F)Oc1ccccc1 (centres undefined) | inactive: -13%
39 | CC(C)c1ccc(OP(C)(=O)Nc2ccc(SC(F)(F)F)cc2)cc1 (centres undefined) | inactive: -7%
40 | CP(=O)(Nc1ccc2c(c1)OCCO2)Oc1ccccc1 (centres undefined) | inactive: 11%
41 | Cc1ccccc1NP(C)(=O)Nc1ccccc1C | inactive: -9%
42 | CCOP(C)(=S)SCC(=O)NC(C)(CC)C(=O)O (centres undefined) | inactive: -7%
43 | O=[N+]([O-])c1cc([N+](=O)[O-])c(NCC2CCS(=O)(=O)C2)c([N+](=O)[O-])c1 (centres undefined) | inactive: -3%
44 | COc1ccc(OP(C)(=O)Nc2cccc(Br)c2)cc1 (centres undefined) | inactive: -22%
45 | CN(C)CCOC(=O)C(O)(c1ccccc1)C1CCCCC1 (centres undefined) | inactive: 0%
46 | COc1ccc(NP(C)(=O)Oc2ccccc2OC)cc1 (centres undefined) | inactive: -1%

Row | SMILES | inhibition
47 | CCOC(=O)c1ccc(NP(C)(=O)Oc2ccc(Cl)cc2)cc1 (centres undefined) | inactive: -3%
48 | CP(=O)(OC12CC3CC(CC(C3)C1)C2)OC12CC3CC(CC(C3)C1)C2 | inactive: -17%
49 | CC(C)(C)c1ccc(OP(C)(=O)O)cc1 | inactive: 0%
50 | COc1ccccc1OP(C)(=O)Nc1ccccc1Br (centres undefined) | inactive: -7%
51 | CP(=O)(Nc1ccc(Cl)cc1)Oc1ccc(F)cc1 (centres undefined) | inactive: -3%
52 | CN(C)C(=O)c1c([N+](=O)[O-])cc([N+](=O)[O-])cc1[N+](=O)[O-] | inactive: -5%
53 | COc1ccc(OP(C)(=O)Nc2ccc(Br)cc2)cc1 (centres undefined) | inactive: -3%
54 | CCN(CC)CC(O)COC(=O)C(O)(c1ccccc1)C1CCCCC1 (centres undefined) | inactive: -5%
55 | CCc1ccc(OP(C)(=O)Nc2cccnc2)cc1 (centres undefined) | inactive: -5%
56 | CP(=O)(Oc1ccccc1)N1CCOC1=O (centres undefined) | inactive: -1%
57 | O=[N+]([O-])c1cc([N+](=O)[O-])c(Nc2ccccn2)c([N+](=O)[O-])c1 | inactive: -16%
58 | Cc1c(NP(C)(=O)Oc2ccc(C(C)C)cc2)c(=O)n(-c2ccccc2)n1C (centres undefined) | inactive: 0%
59 | COc1ccccc1OP(C)(=O)Nc1ccc(C)cc1C (centres undefined) | inactive: -5%
60 | CP(=O)(Nc1ccccn1)Oc1ccccc1 (centres undefined) | inactive: -5%
61 | CCc1ccc(OP(C)(=O)O)cc1 | inactive: -1%
62 | COc1ccc(OP(C)(=O)Nc2ccccn2)cc1 (centres undefined) | inactive: 0%
63 | CN(C)CCOC(=O)C(O)(c1ccccc1)C1CCCC1 (centres undefined) | inactive: -11%
64 | Cc1nc2ccc3ccccc3c2o1.O=[N+]([O-])c1cc([N+](=O)[O-])c(O)c([N+](=O)[O-])c1 | inactive: 0%
65 | CP(=O)(OCCOc1ccccc1)OCCOc1ccccc1 | inactive: -8%
66 | CP(=O)(Nc1ccc(Cl)cc1Cl)Oc1ccccc1 (centres undefined) | inactive: -4%
67 | Cc1cc(C)cc(OP(C)(=O)Nc2cccc(C(F)(F)F)c2)c1 (centres undefined) | inactive: -3%
68 | COc1ccccc1OP(C)(=O)Nc1ccc(C)c(C)c1 (centres undefined) | inactive: -9%
69 | COc1ccc(OP(C)(=O)Nc2ccccc2Br)cc1 (centres undefined) | inactive: -4%
